As usually defined, the T/C is the result in the treated group divided by that in the control group, in per cent.

The experiment deals with P388/BCRP cell line. Put plainly: Overcoming anticancer drug resistance in vivo (survival of tumor-implanted mice). Also noted: species or system CDF1 mice. The conditions noted are these: Table 8; compound 100 mg/kg/day + CPT-11 20 mg/kg/day i.p. once a day, 10 administrations.

Turning to “mono-{4-[(Z)-2-cyano-2-(3,4-dimethoxy-phenyl)-vinyl]-phenyl} sodium phosphate”, the “Survival days Mean ± S.D.” value was 20.2 ± 0.8 days and the T/C came to 151%.
On to “mono-{4-[(Z)-2-cyano-2-(3,4-dimethoxy-phenyl)-vinyl]-2-methoxy-phenyl} sodium phosphate”, for which the “Survival days Mean ± S.D.” value was 19.0 ± 2.3 days and the T/C was determined as 142%.

These data come from patent publication US7371773B2, “Breast cancer resistance protein (BCRP) inhibitor” (Kabushiki Kaisha Yakult Honsha, priority 2003, dated 2008).
